# Experimental data reported in patent US20140357838A1, “N-Terminally Modified Insulin Derivatives” (Novo Nordisk A/S, priority 2011, published 2014).
# Test: Chemical stability of insulin derivatives in 2 mM phosphate (SEC-HPLC and RP-HPLC)
# Type: physicochemical
# Details: 4 weeks 37° C. minus 5° C. start sample; for Chemical degradation (%) (4 weeks 37° C.- 0 weeks 5° C.): pH 7.5, RP-HPLC; for HMWP Formation (%) (4 weeks 37° C.- 0 weeks 5° C.): pH 7.5, SEC-HPLC
# Description: Chemical stability of an insulin derivative is assessed after incubating insulin derivative in 2 mM phosphate, pH=7.5 at 37° C. for up to 8 weeks. Formation of high molecular weight products (HMWP) is determined by SEC HPLC analysis after 0, 2, 4 and optionally 8 weeks. The results of the SEC method are given as a difference between HMWP formation at 37° C. and 5° C. start sample as a percentage of total absorbance at 215 nm. Chemical degradation products are determined by RP HPLC analysis after 0, 2, 4 and optionally 8 weeks. The results of the RP method are given as a difference between chemical degradation observed at 37° C. and 5° C. start sample as a percentage of total absorbance at 215 nm.
# • Solvent: 500 mM NaCl, 10 mM NaH2PO4, 5 mM H3PO4, 50% (v/v) 2-propanol • Flow: 0.5 ml/min • Run time: 30 min • UV Detection: 215 nm • Column: Insulin HMWP column from Waters 7.8×300 mm • Temperature: 50° C.
# • Solvent A: 0.09M phosphate buffer pH 3.6 (di-ammoniumhydrogenphosphate), 10% MeCN (v/v) • Solvent B: 80% MeCN (v/v %) • Flow: 0.3 ml/min • Runtime: 33 min • UV Detection: 215 nm • Column: Waters Acquity BEH130 C18 Column 1.7 μm, 150×2.1 mm • Temperature: 50° C. • Gradient: […]
Structure (SMILES),Chemical degradation (%) (4 weeks 37° C.- 0 weeks 5° C.),HMWP Formation (%) (4 weeks 37° C.- 0 weeks 5° C.)
"CC[C@H](C)[C@H](NC(=O)CN(C)C)C(=O)N[C@H](C(=O)N[C@@H](CCC(=O)O)C(=O)N[C@@H](CCC(N)=O)C(=O)N[C@H]1CSSC[C@@H]2NC(=O)[C@@H]3CSSC[C@H](NC(=O)[C@@H](NC(=O)[C@H](Cc4ccccc4)N(C)C)C(C)C)C(=O)N[C@@H](CCC(N)=O)C(=O)N[C@@H](Cc4c[nH]cn4)C(=O)N[C@@H](CC(C)C)C(=O)N[C@@H](CSSC[C@H](NC1=O)C(=O)N[C@@H]([C@@H](C)O)C(=O)N[C@@H](CO)C(=O)N3)C(=O)NCC(=O)N[C@@H](CO)C(=O)N[C@@H](Cc1c[nH]cn1)C(=O)N[C@@H](CC(C)C)C(=O)N[C@@H](C(C)C)C(=O)N[C@@H](CCC(=O)O)C(=O)N[C@@H](C)C(=O)N[C@@H](CC(C)C)C(=O)N[C@@H](Cc1ccc(O)cc1)C(=O)N[C@@H](CC(C)C)C(=O)N[C@@H](C(C)C)C(=O)N[C@H](C(=O)NCC(=O)N[C@@H](CCC(=O)O)C(=O)N[C@@H](CCCNC(=N)N)C(=O)NCC(=O)N[C@@H](Cc1ccccc1)C(=O)N[C@@H](Cc1c[nH]cn1)C(=O)N[C@@H](Cc1ccc(O)cc1)C(=O)N[C@H](C(=O)N1CCC[C@H]1C(=O)N[C@@H](CCCCNC(=O)COCCOCCNC(=O)COCCOCCNC(=O)CC[C@H](NC(=O)CCCCCCCCCCCCCCCCCCC(=O)O)C(=O)O)C(=O)O)[C@@H](C)O)CSSC[C@@H](C(=O)N[C@@H](CC(N)=O)C(=O)O)NC(=O)[C@H](Cc1ccc(O)cc1)NC(=O)[C@H](CC(N)=O)NC(=O)[C@H](CCC(=O)O)NC(=O)[C@H](CC(C)C)NC(=O)[C@H](CCC(N)=O)NC(=O)[C@H](CCC(=O)O)NC(=O)[C@H](CC(C)C)NC(=O)[C@H](CO)NC2=O)C(C)C [Example 2, A1(N^α,N^α-Dimethyl), A10C, A14E, B1(N^α,N^α-dimethyl), B3C, B25H, B29K(N^εeicosanedioyl-gGlu-2×OEG), desB30 Human Insulin]",2.5,–
"CC[C@H](C)[C@H](NC(=O)CN(C)C)C(=O)N[C@H](C(=O)N[C@@H](CCC(=O)O)C(=O)N[C@@H](CCC(N)=O)C(=O)N[C@H]1CSSC[C@@H]2NC(=O)[C@@H]3CSSC[C@H](NC(=O)[C@@H](NC(=O)[C@H](Cc4ccccc4)N(C)C)C(C)C)C(=O)N[C@@H](CCC(N)=O)C(=O)N[C@@H](Cc4c[nH]cn4)C(=O)N[C@@H](CC(C)C)C(=O)N[C@@H](CSSC[C@H](NC1=O)C(=O)N[C@@H]([C@@H](C)O)C(=O)N[C@@H](CO)C(=O)N3)C(=O)NCC(=O)N[C@@H](CO)C(=O)N[C@@H](Cc1c[nH]cn1)C(=O)N[C@@H](CC(C)C)C(=O)N[C@@H](C(C)C)C(=O)N[C@@H](CCC(=O)O)C(=O)N[C@@H](C)C(=O)N[C@@H](CC(C)C)C(=O)N[C@@H](Cc1ccc(O)cc1)C(=O)N[C@@H](CC(C)C)C(=O)N[C@@H](C(C)C)C(=O)N[C@H](C(=O)NCC(=O)N[C@@H](CCC(=O)O)C(=O)N[C@@H](CCCNC(=N)N)C(=O)NCC(=O)N[C@@H](Cc1ccccc1)C(=O)N[C@@H](Cc1c[nH]cn1)C(=O)N[C@@H](Cc1ccc(O)cc1)C(=O)N[C@H](C(=O)N1CCC[C@H]1C(=O)N[C@@H](CCCCNC(=O)CC[C@H](NC(=O)CCCCCCCCCCCCCCCCC(=O)O)C(=O)O)C(=O)O)[C@@H](C)O)CSSC[C@@H](C(=O)N[C@@H](CC(N)=O)C(=O)O)NC(=O)[C@H](Cc1ccc(O)cc1)NC(=O)[C@H](CC(N)=O)NC(=O)[C@H](CCC(=O)O)NC(=O)[C@H](CC(C)C)NC(=O)[C@H](CCC(N)=O)NC(=O)[C@H](CCC(=O)O)NC(=O)[C@H](CC(C)C)NC(=O)[C@H](CO)NC2=O)C(C)C [Example 3, A1(N^α,N^α-Dimethyl), A10C, A14E, B1(N^α,N^α-dimethyl), B3C, B25H, B29K(N^εoctadecanedioyl-gGlu), desB30 Human Insulin]",–,0.7
"CC[C@H](C)[C@H](NC(=O)CN(C)C)C(=O)N[C@H](C(=O)N[C@@H](CCC(=O)O)C(=O)N[C@@H](CCC(N)=O)C(=O)N[C@H]1CSSC[C@@H]2NC(=O)[C@@H]3CSSC[C@H](NC(=O)[C@@H](NC(=O)CN(C)C)C(C)C)C(=O)N[C@@H](CCC(N)=O)C(=O)N[C@@H](Cc4c[nH]cn4)C(=O)N[C@@H](CC(C)C)C(=O)N[C@@H](CSSC[C@H](NC1=O)C(=O)N[C@@H]([C@@H](C)O)C(=O)N[C@@H](CO)C(=O)N3)C(=O)NCC(=O)N[C@@H](CO)C(=O)N[C@@H](Cc1c[nH]cn1)C(=O)N[C@@H](CC(C)C)C(=O)N[C@@H](C(C)C)C(=O)N[C@@H](CCC(=O)O)C(=O)N[C@@H](C)C(=O)N[C@@H](CC(C)C)C(=O)N[C@@H](Cc1ccc(O)cc1)C(=O)N[C@@H](CC(C)C)C(=O)N[C@@H](C(C)C)C(=O)N[C@H](C(=O)NCC(=O)N[C@@H](CCC(=O)O)C(=O)N[C@@H](CCCNC(=N)N)C(=O)NCC(=O)N[C@@H](Cc1ccccc1)C(=O)N[C@@H](Cc1ccccc1)C(=O)N[C@@H](Cc1ccc(O)cc1)C(=O)N1CCC[C@H]1C(=O)N[C@@H](CCCCNC(=O)CC[C@H](NC(=O)CCCCCCCCCCCCCCCCC(=O)O)C(=O)O)C(=O)O)CSSC[C@@H](C(=O)N[C@@H](CC(N)=O)C(=O)O)NC(=O)[C@H](Cc1ccc(O)cc1)NC(=O)[C@H](CC(N)=O)NC(=O)[C@H](CCC(=O)O)NC(=O)[C@H](CC(C)C)NC(=O)[C@H](CCC(N)=O)NC(=O)[C@H](CCC(=O)O)NC(=O)[C@H](CC(C)C)NC(=O)[C@H](CO)NC2=O)C(C)C [Example 9, A1(N^α,N^α-Dimethyl), A10C, A14E, B1G(N^α,N^α-dimethyl), B3C, desB27, B29K(N^εoctadecanedioyl-gGlu), desB30 Human Insulin]",–,0.7
"CC[C@H](C)[C@H](NC(=O)CN(C)C)C(=O)N[C@H](C(=O)N[C@@H](CCC(=O)O)C(=O)N[C@@H](CCC(N)=O)C(=O)N[C@H]1CSSC[C@@H]2NC(=O)[C@@H]3CSSC[C@H](NC(=O)[C@@H](NC(=O)[C@H](Cc4ccccc4)N(C)C)C(C)C)C(=O)N[C@@H](CCC(N)=O)C(=O)N[C@@H](Cc4c[nH]cn4)C(=O)N[C@@H](CC(C)C)C(=O)N[C@@H](CSSC[C@H](NC1=O)C(=O)N[C@@H]([C@@H](C)O)C(=O)N[C@@H](CO)C(=O)N3)C(=O)NCC(=O)N[C@@H](CO)C(=O)N[C@@H](Cc1c[nH]cn1)C(=O)N[C@@H](CC(C)C)C(=O)N[C@@H](C(C)C)C(=O)N[C@@H](CCC(=O)O)C(=O)N[C@@H](C)C(=O)N[C@@H](CC(C)C)C(=O)N[C@@H](Cc1c[nH]cn1)C(=O)N[C@@H](CC(C)C)C(=O)N[C@@H](C(C)C)C(=O)N[C@H](C(=O)NCC(=O)N[C@@H](CCC(=O)O)C(=O)N[C@@H](CCCNC(=N)N)C(=O)NCC(=O)N[C@@H](Cc1ccccc1)C(=O)N[C@@H](Cc1c[nH]cn1)C(=O)N[C@@H](Cc1ccc(O)cc1)C(=O)N[C@H](C(=O)N1CCC[C@H]1C(=O)N[C@@H](CCCCNC(=O)COCCOCCNC(=O)COCCOCCNC(=O)CC[C@H](NC(=O)CCCCCCCCCCCCCCCCC(=O)O)C(=O)O)C(=O)O)[C@@H](C)O)CSSC[C@@H](C(=O)N[C@@H](CC(N)=O)C(=O)O)NC(=O)[C@H](Cc1ccc(O)cc1)NC(=O)[C@H](CC(N)=O)NC(=O)[C@H](CCC(=O)O)NC(=O)[C@H](CC(C)C)NC(=O)[C@H](CCC(N)=O)NC(=O)[C@H](CCC(=O)O)NC(=O)[C@H](CC(C)C)NC(=O)[C@H](CO)NC2=O)C(C)C [Example 13, A1(N^α,N^α-Dimethyl), A10C, A14E, B1(N^α,N^α-dimethyl), B3C, B16H, B25H, B29K(N^εoctadecanedioyl-gGlu-2×OEG), desB30 Human Insulin]",–,0.5
"CC[C@H](C)[C@H](NC(=O)CN(C)C)C(=O)N[C@H](C(=O)N[C@@H](CCC(=O)O)C(=O)N[C@@H](CCC(N)=O)C(=O)N[C@H]1CSSC[C@@H]2NC(=O)[C@@H]3CSSC[C@H](NC(=O)[C@@H](NC(=O)CN(C)C)C(C)C)C(=O)N[C@@H](CCC(N)=O)C(=O)N[C@@H](Cc4c[nH]cn4)C(=O)N[C@@H](CC(C)C)C(=O)N[C@@H](CSSC[C@H](NC1=O)C(=O)N[C@@H]([C@@H](C)O)C(=O)N[C@@H](CO)C(=O)N3)C(=O)NCC(=O)N[C@@H](CO)C(=O)N[C@@H](Cc1c[nH]cn1)C(=O)N[C@@H](CC(C)C)C(=O)N[C@@H](C(C)C)C(=O)N[C@@H](CCC(=O)O)C(=O)N[C@@H](C)C(=O)N[C@@H](CC(C)C)C(=O)N[C@@H](Cc1ccc(O)cc1)C(=O)N[C@@H](CC(C)C)C(=O)N[C@@H](C(C)C)C(=O)N[C@H](C(=O)NCC(=O)N[C@@H](CCC(=O)O)C(=O)N[C@@H](CCCNC(=N)N)C(=O)NCC(=O)N[C@@H](Cc1ccccc1)C(=O)N[C@@H](Cc1ccccc1)C(=O)N[C@@H](Cc1ccc(O)cc1)C(=O)N1CCC[C@H]1C(=O)N[C@@H](CCCCNC(=O)COCCOCCNC(=O)COCCOCCNC(=O)CC[C@H](NC(=O)CCCCCCCCCCCCCCCCC(=O)O)C(=O)O)C(=O)O)CSSC[C@@H](C(=O)N[C@@H](CC(N)=O)C(=O)O)NC(=O)[C@H](Cc1ccc(O)cc1)NC(=O)[C@H](CC(N)=O)NC(=O)[C@H](CCC(=O)O)NC(=O)[C@H](CC(C)C)NC(=O)[C@H](CCC(N)=O)NC(=O)[C@H](CCC(=O)O)NC(=O)[C@H](CC(C)C)NC(=O)[C@H](CO)NC2=O)C(C)C [Example 14, A1(N^α,N^α-Dimethyl), A10C, A14E, B1G(N^α,N^α-dimethyl), B3C, desB27, B29K(N^εoctadecanedioyl-gGlu-2×OEG), desB30 Human Insulin]",9.7,–
